This experiment relates to androgen receptor-positive (AR+) triple-negative breast cancer. As to the kind of experiment: Clinical trial of enzalutamide in patients with AR+ triple-negative breast cancer. The class given is in vivo, human.

The source of these data is US10196693B2, “Method for predicting response to breast cancer therapeutic agents and method of treatment of breast cancer” (MEDIVATION PROSTATE THERAPEUTICS, LLC, priority 2014, dated 2019).

As to `CNC(=O)c1ccc(N2C(=S)N(c3ccc(C#N)c(C(F)(F)F)c3)C(=O)C2(C)C)cc1F` [enzalutamide, 4-(3-(4-cyano-3-(trifluoromethyl)phenyl)-5,5-dimethyl-4-oxo-2-thioxoimidazolidin-1-yl)-2-fluoro-N-methylbenzamide], the “median overall survival (mOS)” value was “not yet reached” (160 mg/day oral, PR-AR DX+ (score > −0.25), at 84 weeks) and 32.1 weeks (160 mg/day oral, PR-AR DX− (score <= −0.25)). Also, the “median progression-free survival (mPFS)” value (160 mg/day oral, patients meeting signature, Weighted Basal and Luminal A classifier score > −0.25 (PR-AR DX+)) is listed as 16.1 weeks; the “median progression-free survival (mPFS)” value (160 mg/day oral, patients not meeting signature, score <= −0.25 (PR-AR DX−)) is 8.1 weeks; the “median progression-free survival (mPFS)” value (patients with zero to one prior therapies, PR-AR DX+ (score > −0.25), to 64 weeks) was 40.4 weeks; the “median progression-free survival (mPFS)” value (patients with zero to one prior therapies, PR-AR DX− (score <= −0.25), to 64 weeks) is 8.9 weeks. The “Clinical Benefit Rate at ≥24 weeks (CBR24)” value by setting is: (Basal Centroid classifier score <0.6, 1st line and 2nd line patients) 60%; (patients with Basal Centroid classifier score <0.6 (Novel DX+)) 42%.
